Test results: PubChem BioAssay AID2129 (The Scripps Research Institute Molecular Screening Center, 2009)
The list shows a part of the results, in another mix than the full data. Some structures show a salt or complex split into parts, the way the source records it. Activity calls are given as the source filed them.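 How the source made its calls: active means inhibition above the mean of all tested compounds plus 3 SD, cutoff set per campaign (cut at about 30% in these data); inactive means the rest.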

By UniProt entry, the sequences of proteins in these tests, tags left out.
UniProt Q07817, whole entry: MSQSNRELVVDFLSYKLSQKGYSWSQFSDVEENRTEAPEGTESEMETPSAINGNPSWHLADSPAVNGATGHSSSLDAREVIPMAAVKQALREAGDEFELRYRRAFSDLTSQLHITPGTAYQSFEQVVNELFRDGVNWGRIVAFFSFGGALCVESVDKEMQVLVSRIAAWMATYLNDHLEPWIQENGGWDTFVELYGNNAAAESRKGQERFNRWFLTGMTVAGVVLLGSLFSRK

target: Bcl-2-like protein 1 (Homo sapiens) (UniProt Q07817); assay: Bcl-xL/Bim BH3 interaction blockers – biochemical, fluorescence polarization, HTS, primary screen (AID 2129); settings: GST-Bcl-xL / FITC-Bim BH3 peptide fluorescence polarization; at 10.9 µM; hits give high values;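 further: 0% = DMSO wells and 100% = unlabeled Bim-BH3 peptide competitor; inhibitors lower millipolarization by displacing the labeled peptide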

Compound | inhibition
CP(=O)(Nc1ccccc1)Oc1ccc(F)cc1 (configuration not stated) | inactive: -2.33%
O=[N+]([O-])c1cc([N+](=O)[O-])c(OC2CCCCC2O)c([N+](=O)[O-])c1 (configuration not stated) | inactive: 8.87%
CCCCCOc1ccc(NP(C)(=O)Oc2ccc(Cl)cc2Cl)cc1 (configuration not stated) | inactive: 1.07%
CCN(CC)CCCOC(=O)C(O)(c1ccccc1)C1CCCCC1 (configuration not stated) | inactive: -1.03%
CCOC(=O)c1ccc(NP(C)(=O)Oc2ccc(F)cc2)cc1 (configuration not stated) | inactive: -0.66%
COc1ccc(OP(C)(=O)Nc2ccc(SC(F)(F)F)cc2)cc1 (configuration not stated) | inactive: 7.85%
COc1ccc2c(c1O)-c1c(O)c(OC)cc3c1[C@H](C2)[N+](C)(C)CC3.O=[N+]([O-])c1cc([N+](=O)[O-])c([O-])c([N+](=O)[O-])c1[O-] | inactive: 10.9%
O=C(OC1CN2CCC1CC2)c1ccc([N+](=O)[O-])cc1 (configuration not stated) | inactive: -0.11%
O=C(OCCN1CCN(CCOCc2ccccc2)CC1)C(O)(c1ccccc1)c1ccccc1 | inactive: 6.94%
CP(=O)(Nc1ccccc1F)Oc1ccccc1 (configuration not stated) | inactive: 1.35%
CC(C)c1ccc(OP(C)(=O)Nc2ccc(SC(F)(F)F)cc2)cc1 (configuration not stated) | inactive: 3.02%
Cc1ccccc1NP(C)(=O)Nc1ccccc1C | inactive: -0.12%
CP(=O)(Nc1ccc2c(c1)OCCO2)Oc1ccccc1 (configuration not stated) | inactive: 7.77%
CCOP(C)(=S)SCC(=O)NC(C)(CC)C(=O)O (configuration not stated) | inactive: 5.18%
CP(=O)(Nc1ccc(SC(F)(F)F)cc1)Oc1ccc(F)cc1 (configuration not stated) | inactive: 7.39%
O=[N+]([O-])c1cc([N+](=O)[O-])c(NCC2CCS(=O)(=O)C2)c([N+](=O)[O-])c1 (configuration not stated) | inactive: 3.32%
CN(C)CCOC(=O)C(O)(c1ccccc1)C1CCCCC1 (configuration not stated) | inactive: 4.35%
COc1ccc(NP(C)(=O)Oc2ccccc2OC)cc1 (configuration not stated) | inactive: 2.13%
COc1ccc(OP(C)(=O)Nc2cccc(Br)c2)cc1 (configuration not stated) | inactive: 6.9%
CCOC(=O)c1ccc(NP(C)(=O)Oc2ccc(Cl)cc2)cc1 (configuration not stated) | inactive: 2.81%
CP(=O)(OC12CC3CC(CC(C3)C1)C2)OC12CC3CC(CC(C3)C1)C2 | inactive: -1.95%
Nc1ccc2c(ccc3cccnc32)n1.O=[N+]([O-])c1cc([N+](=O)[O-])c(O)c([N+](=O)[O-])c1 | inactive: 4.99%

Compound | inhibition
CN(C)C(=O)c1c([N+](=O)[O-])cc([N+](=O)[O-])cc1[N+](=O)[O-] | inactive: 10.7%
COc1ccccc1OP(C)(=O)Nc1ccccc1Br (configuration not stated) | inactive: 8.44%
CC(C)(C)c1ccc(OP(C)(=O)O)cc1 | inactive: 0.83%
CP(=O)(Nc1ccc(Cl)cc1)Oc1ccc(F)cc1 (configuration not stated) | inactive: 1.43%
COc1ccccc1OP(C)(=O)Nc1c(C)n(C)n(-c2ccccc2)c1=O (configuration not stated) | inactive: 1.43%
O=C(OCCCN1CCCC1)C(O)(c1ccccc1)C1CCCCC1 (configuration not stated) | inactive: 0.2%
CP(=O)(Oc1ccccc1)N1CCOC1=O (configuration not stated) | inactive: 1.97%
CCc1ccc(OP(C)(=O)Nc2cccnc2)cc1 (configuration not stated) | inactive: 7.79%
CCN(CC)CC(O)COC(=O)C(O)(c1ccccc1)C1CCCCC1 (configuration not stated) | inactive: -5.6%
COc1ccc(OP(C)(=O)Nc2ccc(Br)cc2)cc1 (configuration not stated) | inactive: 5.16%
CP(=O)(Nc1ccccn1)Oc1ccccc1 (configuration not stated) | inactive: 2.76%
COc1ccccc1OP(C)(=O)Nc1ccc(C)cc1C (configuration not stated) | inactive: 4.09%
Cc1c(NP(C)(=O)Oc2ccc(C(C)C)cc2)c(=O)n(-c2ccccc2)n1C (configuration not stated) | inactive: 15.5%
O=[N+]([O-])c1cc([N+](=O)[O-])c(Nc2ccccn2)c([N+](=O)[O-])c1 | inactive: 6.59%
COc1ccc(OP(C)(=O)Nc2ccccn2)cc1 (configuration not stated) | inactive: 6.45%
CN(C)CCOC(=O)C(O)(c1ccccc1)C1CCCC1 (configuration not stated) | inactive: -1.02%
COc1ccccc1OP(C)(=O)Nc1ccc(Br)cc1 (configuration not stated) | inactive: -0.93%
CP(=O)(Nc1ccc(Cl)cc1Cl)Oc1ccccc1 (configuration not stated) | inactive: 5.23%
CP(=O)(OCCOc1ccccc1)OCCOc1ccccc1 | inactive: -1.89%
Cc1nc2ccc3ccccc3c2o1.O=[N+]([O-])c1cc([N+](=O)[O-])c(O)c([N+](=O)[O-])c1 | inactive: 3.98%
COc1ccccc1OP(C)(=O)Nc1ccc(C)c(C)c1 (configuration not stated) | inactive: 5.43%
COc1ccc(OP(C)(=O)Nc2ccccc2Br)cc1 (configuration not stated) | inactive: 4.12%

Compound | inhibition
Cc1cc(C)cc(OP(C)(=O)Nc2cccc(C(F)(F)F)c2)c1 (configuration not stated) | inactive: 4.18%
Cc1cc(C)cc(OP(C)(N)=O)c1 (configuration not stated) | inactive: 4.04%
COc1ccccc1OP(C)(=O)Nc1cc(Cl)ccc1C (configuration not stated) | inactive: 6.86%
COc1ccc(OP(C)(=O)Nc2cccc(F)c2)cc1 (configuration not stated) | inactive: 2.43%
COc1ccccc1OP(C)(=O)Nc1ccc(C)cc1 (configuration not stated) | inactive: 3.64%
Cc1ccc(NP(C)(=O)Oc2ccccc2)c(C)c1 (configuration not stated) | inactive: 2.59%
CCOC(=O)c1ccc(NP(C)(=O)Oc2ccccc2)cc1 (configuration not stated) | inactive: 0.69%
O=[N+]([O-])c1ccc2c(c1)C=Nc1ccccc1O2 | inactive: 0.81%
CC(C)(C)c1ccc(OP(C)(=O)Nc2ccc(SC(F)(F)F)cc2)cc1 (configuration not stated) | inactive: -1.24%
Cc1cccc(C)c1OP(C)(N)=O (configuration not stated) | inactive: 3.77%
O=[N+]([O-])c1cc([N+](=O)[O-])c(Nc2cccnc2)c([N+](=O)[O-])c1 | inactive: 6.23%
CCN(CC)CCCOC(=O)C(O)(c1ccccc1)c1ccccc1 | inactive: 0.13%
CP(=O)(Nc1ccccn1)Oc1ccc(Cl)cc1 (configuration not stated) | inactive: 3.26%
CCOC(=O)c1ccc(NP(C)(=O)Oc2ccc(OC)cc2)cc1 (configuration not stated) | inactive: 4.8%
O=[N+]([O-])c1cc([N+](=O)[O-])c(O)c([N+](=O)[O-])c1.c1ccc(Oc2ccncc2)cc1 | inactive: -1.78%
CCOP(C)(=S)SCC(=O)NC(C)C(=O)O (configuration not stated) | inactive: 6.65%
CP(=O)(NC(=O)Nc1ccccc1)Oc1ccccc1 (configuration not stated) | inactive: 1.77%
CCc1ccc(OP(C)(=O)N2CCN(c3ccc([N+](=O)[O-])cc3)CC2)cc1 (configuration not stated) | inactive: -5.67%
Cc1cc(C)cc(OP(C)(=O)Nc2ccc(SC(F)(F)F)cc2)c1 (configuration not stated) | inactive: 4.43%
Cc1cccc(C)c1OP(C)(=O)Nc1ccc(SC(F)(F)F)cc1 (configuration not stated) | inactive: 5.73%
CP(=O)(Nc1ccc(SC(F)(F)F)cc1)Oc1ccc(Cl)cc1 (configuration not stated) | inactive: 6.71%
CP(=O)(Oc1ccccc1)OC(c1ccccc1)C(F)(F)F (configuration not stated) | inactive: 1.88%

Compound | inhibition
CP(=O)(Nc1ccccc1Br)Oc1ccccc1 (configuration not stated) | inactive: 2.35%
COc1ccccc1OP(C)(=O)Nc1ccccc1 (configuration not stated) | inactive: -2.3%
CP(=S)(Nn1cnnc1)Oc1ccccc1 (configuration not stated) | inactive: 4.44%
CCCOc1ccc(NP(C)(=O)Oc2ccc(Cl)cc2)cc1 (configuration not stated) | inactive: 1.61%
CP(=O)(Nc1ccc(SC(F)(F)F)cc1)Oc1ccccc1 (configuration not stated) | inactive: 1.03%
COc1ccccc1OP(C)(=O)Nc1c(C)cccc1C (configuration not stated) | inactive: 5.76%
CN1CCCCC1COC(=O)C1(O)c2ccccc2CCc2ccccc21 (configuration not stated) | inactive: -1.78%
CC1=C2N=C(C=C3N=C(C(C)=C4[N-][C@@](C)([C@@H]5N=C1[C@](C)(CCC(=O)NC[C@@H](C)OP(=O)([O-])O[C@H]1[C@@H](O)[C@@H](n6cnc7cc(C)c(C)cc76)O[C@@H]1CO)[C@H]5CC(N)=O)[C@@](C)(CC(N)=O)[C@@H]4CCC(N)=O)[C@@](C)(CC(N)=O)[C@@H]3CCC(N)=O)C(C)(C)[C@@H]2CCC(N)=O.[C-]#N.[Co+3] | inactive: -4.13%
O=[N+]([O-])c1cc([N+](=O)[O-])c(Nc2nnnn2CCO)c([N+](=O)[O-])c1 | inactive: 3.99%
CCOC(=O)C(CC)C1=NC(C)(C)Cc2ccccc21.O=[N+]([O-])c1cc([N+](=O)[O-])c(O)c([N+](=O)[O-])c1 (configuration not stated) | inactive: 7.5%
Cc1nc2ccc3ccccc3c2s1.O=[N+]([O-])c1cc([N+](=O)[O-])c(O)c([N+](=O)[O-])c1 | inactive: 2.52%
O=[N+]([O-])c1cc([N+](=O)[O-])c(-c2cnn(-c3ccccc3)c2)c([N+](=O)[O-])c1 | inactive: 2.08%
O=[N+]([O-])c1cc([N+](=O)[O-])c(-n2nnc3ccccc32)c([N+](=O)[O-])c1 | inactive: 2.46%
Cc1ccc(C)c(NP(C)(=O)Oc2ccccc2)c1 (configuration not stated) | inactive: 0.47%
Cc1cc(C)cc(OP(C)(=O)Nc2ccccn2)c1 (configuration not stated) | inactive: 3.97%
CP(=O)(Nc1cccc(Br)c1)Oc1ccccc1 (configuration not stated) | inactive: 6.69%
CCOC(=O)c1ccc(NP(C)(=O)Oc2cc(C)cc(C)c2)cc1 (configuration not stated) | inactive: 3.46%
Cc1cc(C)cc(OP(C)(=O)Nc2ccc(C)cc2C)c1 (configuration not stated) | inactive: -3.64%
COc1ccccc1OP(C)(=O)Nc1cccc(Br)c1 (configuration not stated) | inactive: -0.87%
CC1=NCCc2c1[nH]c1ccccc21.O=[N+]([O-])c1cc([N+](=O)[O-])c(O)c([N+](=O)[O-])c1 | inactive: 4.68%
O=C(O)c1cccc(Nc2c([N+](=O)[O-])cc([N+](=O)[O-])cc2[N+](=O)[O-])c1 | inactive: 8.79%
